# scFv variants of Ab-14 (heavy chain) against a SARS-CoV-2 spike peptide

Binding partner: SARS-CoV-2 spike HR2 peptide, sequence PDVDLGDISGINAS.

The variants keep the light chain, the linker and the frameworks of Ab-14 (scFv order VH, three GGGGS repeats, VL).
VH: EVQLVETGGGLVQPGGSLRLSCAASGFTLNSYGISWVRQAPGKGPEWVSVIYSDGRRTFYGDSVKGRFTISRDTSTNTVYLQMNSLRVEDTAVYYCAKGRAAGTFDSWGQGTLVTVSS
VL: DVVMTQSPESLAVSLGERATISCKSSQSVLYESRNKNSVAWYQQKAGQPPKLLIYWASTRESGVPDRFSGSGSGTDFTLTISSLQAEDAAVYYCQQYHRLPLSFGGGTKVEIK

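The starting antibody came from a phage panning campaign against this peptide. Variants in AAYL49 differ from the parent at up to three CDR positions; double and triple changes were sampled at random. In AlphaSeq, yeast of one mating type display the scFv and yeast of the other type display the target. Pairs that bind mate more often; barcode pairs of the diploids are counted by sequencing. Scores were corrected for input abundance and mapped to Kd with protein pairs of known affinity run in the same pool. There are three technical replicates.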

Variants are written as CDR1, CDR2 and CDR3 of the heavy chain (limits as in the source). Parent: GFTLNSYGIS, VIYSDGRRTFYGDSVK, GRAAGTFDS. All variants listed here change N30 of the VH, counted from its first residue. Affinities are written as log10 Kd with Kd in nM; a lower number is a better binder. Averages over replicates are reported, and they cover detected replicates only. A pair that was not seen in any replicate is written "nd"; this usually means weak binding, but a binder can also be missed.

- GFTLHSYGIS / VIYSDGRQMFYGDSVK / GRAAGTFDS -> nd (0 of 3 replicates; controls 0 of 9)
- GFTLESYGIS / AIYSDGRRTFYGDSVK / GRAAGTFDS -> 4.05 (3 of 3 replicates; controls 2 of 9)
- GFTLPSVGIS / VIYSDGRRTFYGHSVK / GRAAGTFDS -> nd (0 of 3 replicates; controls 0 of 9)
- GFTLGSYGIS / VIYSDGRRTFYGDSVK / GRAAYTFDS -> 3.27 (1 of 3 replicates; controls 0 of 9)
- GFNLLSYGIS / VIYSDGRRTFPGDSVK / GRAAGTFDS -> nd (0 of 3 replicates; controls 0 of 9)
- GFTLKSYGIS / VISSDGRRTFYGDSVK / GRAAGTHDS -> 4.50 (1 of 3 replicates; controls 2 of 9)
- GFTLISYGIS / KIYSDGRRTFYGDSVK / CRAAGTFDS -> nd (0 of 3 replicates; controls 0 of 9)
- GFTLISYGIS / KIYSWGRRTFYGDSVK / GRAAGTFDS -> 3.92 (2 of 3 replicates; controls 1 of 9)
- GFILYSYGIS / VAYSDGRRTFYGDSVK / GRAAGTFDS -> nd (0 of 3 replicates; controls 0 of 9)
- GFTLTSYGIS / VPYSDGRRTFYGDSVK / GRANGTFDS -> nd (0 of 3 replicates; controls 0 of 9)
- GFTLYSYGIS / VIYSDGRRTFYGDSVK / GRRPGTFDS -> 3.45 (3 of 3 replicates; controls 1 of 9)
- HFTLISYGIS / VIYSDGRRTFYWDSVK / GRAAGTFDS -> nd (0 of 3 replicates; controls 0 of 9)
- GFTLISYGIS / VIYSDGRRTFYGDSVK / GRAAGTFDS -> 2.55 (3 of 3 replicates; controls 0 of 9)
- GFTLWSYGIS / VIYSDGRRTFYGDSVD / GRAAGTFDS -> 1.27 (3 of 3 replicates; controls 0 of 9)
- GFTLWSYGIS / VIYSDGRRTFYGYSVK / GRHAGTFDS -> nd (0 of 3 replicates; controls 0 of 9)
- GFTLRSYGIS / VIYSDGRRQFYGMSVK / GRAAGTFDS -> 4.80 (1 of 3 replicates; controls 3 of 9)
- GFMLCSYGIS / VIYSDGRRTFYHDSVK / GRAAGTFDS -> 2.01 (3 of 3 replicates; controls 0 of 9)
- GFTLTSYGIP / VIYSDGRRTFYGDSVK / GRAPGTFDS -> 4.00 (2 of 3 replicates; controls 4 of 9)
- GFSLFSYGIS / VIYSDGRRTFYGDSVK / IRAAGTFDS -> nd (0 of 3 replicates; controls 0 of 9)
- GFTLVSYGIS / VIYWDGRNTFYGDSVK / GRAAGTFDS -> nd (0 of 3 replicates; controls 0 of 9)
- GFTLCSYGIS / VIYSDGRRTTYGDSVK / GRAAGTFDS -> nd (0 of 3 replicates; controls 1 of 9)
- GFTLLSYGIS / VIYSDGQRTFYGDSVH / GRAAGTFDS -> 1.88 (3 of 3 replicates; controls 0 of 9)
- GFTLESYGIS / VIYHDGRRTFYGDSVT / GRAAGTFDS -> 2.18 (2 of 3 replicates; controls 0 of 9)
- GFTLASNGIS / VIYSDGRETFYGDSVK / GRAAGTFDS -> 1.85 (3 of 3 replicates; controls 0 of 9)
- GFTLASYGIS / VAYSDGRRTFYGDSVK / GPAAGTFDS -> nd (0 of 3 replicates; controls 2 of 9)
- GFTLSSYGES / VIYSDGRRTFYGDKVK / GRAAGTFDS -> 5.05 (2 of 3 replicates; controls 3 of 9)
- GFTLGSYGIS / VIRSDGRRTFYGDSVK / GRAAGTFLS -> nd (0 of 3 replicates; controls 0 of 9)
- GFTLTSYGIS / VIYSDGRRTFYGDAVK / GRAAGTFDS -> 1.03 (3 of 3 replicates; controls 3 of 9)
- GFTLHSYGIS / VIYSDGRRTFYGDGVK / GRAAGTFDS -> 1.90 (3 of 3 replicates; controls 0 of 9)
- GFTLFSYGIS / VIYSDGRRTFYGDSVK / GRAAYTFDV -> nd (0 of 3 replicates; controls 3 of 9)
- GFELYSYGIS / VIYSDGRRTFYGDSVK / GRDAGTFDS -> 2.17 (3 of 3 replicates; controls 4 of 9)
- GFTLQSYGIS / VIYSDGRRTFYGDSVR / GRAAGTFDS -> 0.94 (3 of 3 replicates; controls 1 of 9)
- GFTLDSYGIS / AIYSDGRRTFYGDSVK / GRAAQTFDS -> 4.92 (2 of 3 replicates; controls 2 of 9)
- GFTLKSYGIS / VIYSDGRRTDYGDSVK / GRLAGTFDS -> 2.99 (2 of 3 replicates; controls 1 of 9)
- GFTLHSYGIS / VPYSDGRRTFYGDSVK / GRACGTFDS -> nd (0 of 3 replicates; controls 5 of 9)
- GFTCLSYGIS / VIYSDGRRMFYGDSVK / GRAAGTFDS -> 3.77 (1 of 3 replicates; controls 2 of 9)
- GFTLHTYGIS / VIYSDGRRTFYGDSVK / GAAAGTFDS -> 2.65 (1 of 3 replicates; controls 1 of 9)
- HFTLPSYGIS / VIYSDGRRTFYGDSDK / GRAAGTFDS -> 3.96 (2 of 3 replicates; controls 2 of 9)
- GFTLGSYGIS / VIYSDGRRTFYGDSVT / GRAAPTFDS -> 3.70 (1 of 3 replicates; controls 3 of 9)
- GVTLPSYGIS / VIYSDGRRTFYGDSVK / GRAAGTFNS -> nd (0 of 3 replicates; controls 0 of 9)
- GFTLVSYGIS / VIYSDGRRTFYGDSVK / IMAAGTFDS -> 2.01 (3 of 3 replicates; controls 0 of 9)

Extract of 6 entries:

* GFTLHSYGIS / VIYSDGRRTFYGDGVK / GRAAGTFDS -> 1.90 (3 of 3 replicates; controls 0 of 9)
* GFTLYSYGIS / VIYSDGRRTFYGDSVK / GRRPGTFDS -> 3.45 (3 of 3 replicates; controls 1 of 9)
* GFMLCSYGIS / VIYSDGRRTFYHDSVK / GRAAGTFDS -> 2.01 (3 of 3 replicates; controls 0 of 9)
* GFELYSYGIS / VIYSDGRRTFYGDSVK / GRDAGTFDS -> 2.17 (3 of 3 replicates; controls 4 of 9)
* GFILYSYGIS / VAYSDGRRTFYGDSVK / GRAAGTFDS -> nd (0 of 3 replicates; controls 0 of 9)
* HFTLISYGIS / VIYSDGRRTFYWDSVK / GRAAGTFDS -> nd (0 of 3 replicates; controls 0 of 9)

Background: pairings of library AAYL49 with three empty control strains gave a value in 15% of cases (median 4.06, 5th percentile 2.83). Values in that range, when seen in few replicates, are hard to tell from nonspecific mating. Also given: how often the same scFv was detected with the empty control strains.

The measurements come from Engelhart et al. 2022 (doi:10.1038/s41597-022-01779-4) through the FLAb antibody collection.